{"source": "patent US9980489B2", "about": "“Stabilized bio-available soluble silicate solution” (priority 2010, dated 2018)", "origin": "cited, not measured here", "details": "cited from earlier work", "data": [{"substance": "monosilicic acid Si(OH)4", "values": [{"measurement": "lowest pKa value", "value": 9.8}]}]}
